Target: T1, adenosine receptor known as A1 (Cavia porcellus, UniProt P47745)
T1 construct: Atrial pairs are obtained from guinea-pigs (Dunkin Hartley strain); from tissue; host or cells: guinea-pig spontaneously beating atrial pairs (Dunkin Hartley)
Assay: Guinea-pig Atrial Bradycardic Test
Type: biochemical
Settings: antagonism of 2-chloroadenosine bradycardia in beating guinea-pig atrial pair; read-out: pA2 (converted)

The chains behind the UniProt entries cited, without tags or fusion partners.
UniProt P47745, whole entry: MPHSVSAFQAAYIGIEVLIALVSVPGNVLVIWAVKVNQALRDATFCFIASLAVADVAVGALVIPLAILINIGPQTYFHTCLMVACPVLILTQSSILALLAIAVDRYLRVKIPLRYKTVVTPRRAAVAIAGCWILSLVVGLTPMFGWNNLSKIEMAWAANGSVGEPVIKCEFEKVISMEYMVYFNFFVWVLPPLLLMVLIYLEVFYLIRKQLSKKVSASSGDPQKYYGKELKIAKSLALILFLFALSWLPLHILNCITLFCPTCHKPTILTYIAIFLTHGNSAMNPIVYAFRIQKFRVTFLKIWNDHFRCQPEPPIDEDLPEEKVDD

`Cn1c(=O)c2[nH]cnc2n(C)c1=O` [1,3-dimethylxanthine] showed a Kb of about 10 µM.
